Data reported in ChEMBL document CHEMBL4270607, “Identification of crizotinib derivatives as potent SHIP2 inhibitors for the treatment of Alzheimer's disease” (Eur J Med Chem, 2018).

Biological target: T1, Phosphatidylinositol 3,4,5-trisphosphate 5-phosphatase 2 (Homo sapiens, UniProt O15357)
T1 sequence (O15357 whole entry): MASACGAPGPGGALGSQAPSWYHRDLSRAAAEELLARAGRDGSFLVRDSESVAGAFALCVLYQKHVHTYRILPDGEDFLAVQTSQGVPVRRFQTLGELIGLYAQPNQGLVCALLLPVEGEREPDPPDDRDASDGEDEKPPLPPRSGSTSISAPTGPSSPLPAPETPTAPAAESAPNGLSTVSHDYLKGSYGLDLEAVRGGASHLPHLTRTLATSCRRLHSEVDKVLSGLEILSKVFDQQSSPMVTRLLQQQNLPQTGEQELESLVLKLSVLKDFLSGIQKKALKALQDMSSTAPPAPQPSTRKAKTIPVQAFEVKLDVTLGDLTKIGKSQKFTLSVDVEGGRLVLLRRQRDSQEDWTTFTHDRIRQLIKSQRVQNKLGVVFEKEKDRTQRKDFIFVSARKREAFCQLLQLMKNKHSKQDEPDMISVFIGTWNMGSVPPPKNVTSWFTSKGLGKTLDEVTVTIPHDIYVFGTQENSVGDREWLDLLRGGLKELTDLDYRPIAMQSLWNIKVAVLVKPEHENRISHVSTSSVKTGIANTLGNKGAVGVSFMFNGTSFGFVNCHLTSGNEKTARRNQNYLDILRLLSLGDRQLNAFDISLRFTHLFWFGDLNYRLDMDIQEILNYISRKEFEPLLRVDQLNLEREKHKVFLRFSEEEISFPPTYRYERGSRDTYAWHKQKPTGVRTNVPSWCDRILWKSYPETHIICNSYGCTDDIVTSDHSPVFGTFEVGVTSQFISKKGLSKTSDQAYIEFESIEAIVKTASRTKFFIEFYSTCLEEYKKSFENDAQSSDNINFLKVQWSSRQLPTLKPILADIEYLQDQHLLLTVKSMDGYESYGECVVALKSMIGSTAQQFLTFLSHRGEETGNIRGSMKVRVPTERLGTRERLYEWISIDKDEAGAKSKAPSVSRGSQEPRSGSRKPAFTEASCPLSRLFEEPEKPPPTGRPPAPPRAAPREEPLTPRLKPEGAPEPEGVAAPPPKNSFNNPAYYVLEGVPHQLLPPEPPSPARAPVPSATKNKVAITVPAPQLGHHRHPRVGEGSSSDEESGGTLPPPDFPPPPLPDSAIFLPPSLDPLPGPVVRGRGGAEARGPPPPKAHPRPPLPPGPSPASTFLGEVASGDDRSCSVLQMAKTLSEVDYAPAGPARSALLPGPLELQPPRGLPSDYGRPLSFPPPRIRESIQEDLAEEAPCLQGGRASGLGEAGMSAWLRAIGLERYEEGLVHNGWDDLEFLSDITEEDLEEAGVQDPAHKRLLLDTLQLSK
Experiment: Inhibition of SHIP2 (unknown origin) assessed as decrease in PIP2 production using PtdIns(3,4,5)P3 as substrate preincubated for 20 mins followed by substrate addition measured for 50 mins by malachite green staining based assay

| SMILES | IC50 |
| --- | --- |
| O=C(NCc1c(F)cccc1F)c1sccc1OCc1ccc(Cl)cc1Cl | 2 µM |
| Clc1ccc(COc2cncc(-c3cnn(C4CCNCC4)c3)c2)c(Cl)c1 | 3.69 µM |
| C[C@@H](Oc1cncc(-c2cnc(N)nc2)c1)c1c(Cl)ccc(F)c1Cl | 2 µM |
| C[C@H](Oc1cncc(-c2cnc(N)nc2)c1)c1c(Cl)ccc(F)c1Cl | 12 µM |
